Amino acid sequences for entries named in this document (tags omitted).
Melanocortin receptor 4 (Homo sapiens), P32245, UniProt P32245, whole entry, looked up: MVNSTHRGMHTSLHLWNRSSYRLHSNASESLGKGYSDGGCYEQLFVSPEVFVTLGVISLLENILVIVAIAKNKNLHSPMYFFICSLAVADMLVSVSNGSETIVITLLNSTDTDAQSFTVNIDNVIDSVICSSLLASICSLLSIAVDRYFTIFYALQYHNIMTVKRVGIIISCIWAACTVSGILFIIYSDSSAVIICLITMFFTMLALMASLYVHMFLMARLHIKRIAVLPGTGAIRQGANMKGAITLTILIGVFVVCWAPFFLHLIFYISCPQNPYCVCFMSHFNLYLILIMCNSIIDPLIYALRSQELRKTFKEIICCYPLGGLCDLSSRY

# Screens (PubChem)
# An excerpt weighted towards active compounds, which were near 4.2% of everything screened.
# ALR H2O2 inh: human ALR oxidase inhibition via reduced H2O2; P55789; purified ALR, DTT oxidation, H2O2 HRP-luminol luminescence; inhibition, % (concentration not given with the values); 290,000 tested, 3.8% active;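 active = mean and each replicate at 75% or more; inconclusive = only one of the two met; inactive = neither met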;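 note: stock transfer was 7.5 nL into about 7.5 µL; 0% = neutral wells and 100% = wells with inactivated enzyme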
# UUG fidelity: modulators of start codon recognition fidelity in yeast; AID 602363; hit rate 0.13% among 350,000; activity score, % at 18.7 µM; S. cerevisiae UUG-firefly luciferase reporter, luminescence/redox ratio;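 active = replicate mean at a twofold rise or more, about +100% in these data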;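 note: firefly luciferase made from a UUG start codon reports start codon fidelity; reporter light over untreated wells divided by growth signal over untreated wells; some hits fall short of that in this replicate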
# MC4R barr agon: MC4R agonists recruiting beta-arrestin, primary screen, cell-based, luminescence, agonist arm of biased-ligand search | Melanocortin receptor 4 (Homo sapiens), P32245 | U2OS MC4R beta-arrestin complementation; percent of melanotan II response, DMSO zero | activation, % at 8.9 µM | actives 0.98% (n = 360,000) | AID 540308, 2011;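 active = activation above a per-plate cutoff, the mean activation of sample wells on that plate plus 3 SD, cut at about 8% in these data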
# NALP1 inh: NALP1 inflammasome inhibitors in reconstituted yeast, colorimetric, S. cerevisiae, triplicate retest. S. cerevisiae NALP1/ASC/caspase-1 growth, X-gal OD620, 72 h. inhibition, % at 10 µM. actives 0.61% (n = 280,000). AID 2071, 2009; in the data active = inhibition mostly above about 24%, no sharp cut-off; inactive = mostly below about 32%
# MC4R antagonist: MC4R antagonists of cAMP signaling, primary screen, cell-based, TR-FRET, antagonist arm of biased-ligand search | Melanocortin receptor 4 (Homo sapiens), P32245 | MC4R-expressing cells, MTII-stimulated cAMP, LANCE TR-FRET | inhibition, % at 6.5 µM | actives 0.48% (n = 360,000) | AID 540295, 2011;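 active = inhibition above its plate's cutoff, the mean of tested wells on that plate plus 3 SD, cut at about 29% in these data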;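 note: 0% = Melanotan II alone and 100% = Melanotan II plus saturating MCL0020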
#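 System – human MC4R-expressing U2OS cells · Also added – Melanotan II · Dosing – one concentration, 6.5 µM nominal · Timing – 30-min compound, 1-h challenge, 1-h detection, room temperature · Measured by – Eu-cAMP/anti-cAMP TR-FRET, emission 671 nm · Replicates – singlicate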
# HDAC3 inhib: HDAC3 deacetylase inhibitors, primary screen, biochemical, fluorescence, cell-free homogeneous; recombinant HDAC3, fluorogenic peptide/trypsin coupled; inhibition, % at 8.3 µM; actives 0.15% (n = 320,000); AID 2718, 2010; in the data active = inhibition above about 26%, passing the limit was not always enough
# * hit, by the source's call; . = no result given.
No. | ALR H2O2 inh | UUG fidelity | MC4R barr agon | NALP1 inh | MC4R antagonist | HDAC3 inhib | mol
1 | . | 13 | . | . | . | . | COc1ccc(NC(=O)N(C)C[C@H]2Oc3ccc(NS(=O)(=O)c4ccc(Cl)cc4)cc3CC(=O)N([C@H](C)CO)C[C@@H]2C)cc1
2 | . | 9 | . | . | . | . | Cc1ccc(S(=O)(=O)Nc2ccc3c(c2)C(=O)N([C@@H](C)CO)C[C@H](C)[C@H](CN(C)Cc2ccc(C(F)(F)F)cc2)OCCCC[C@H](C)O3)cc1
3 | 91* | . | 1 | 44 | 1 | -5 | OC(COCc1cccs1)CN1CCN(c2cccc(Cl)c2)CC1 (stereo not given)
4 | 37 | 0 | -1 | -2 | 4 | 0 | O=S(=O)(NCCN1CCCC1)c1cccc2cccnc12
5 | 95* | -14 | 0 | 1 | 5 | -2 | O=S(=O)(NCCCN1CCN(c2ccccc2F)CC1)c1cccc2cccnc12
6 | . | 16 | . | . | . | . | Cc1ccc(S(=O)(=O)N(C)C[C@@H]2Oc3ncc(C#CC4(O)CCCC4)cc3C(=O)N([C@H](C)CO)C[C@@H]2C)cc1
7 | 99* | -20 | 0 | . | -2 | 45* | Cc1n[nH]c(=O)c2c(NC(=O)CSc3nn(-c4ccc(F)cc4)c(=S)s3)oc(C)c12
8 | -17 | . | -2 | . | 2 | 11 | Cc1n[nH]c(=O)c2c(NC(=O)CSc3c(Cl)cccc3Cl)oc(C)c12
9 | 92* | . | -3 | 9 | 0 | 1 | COc1ccccc1NS(=O)(=O)c1cccc(C(=O)N/N=C2\CC(=O)CC(C)(C)C2)c1
10 | 2 | -16 | 0 | -22 | 2 | 0 | COc1ccccc1NS(=O)(=O)c1cccc(C(=O)NN=C2CCCC2)c1
11 | 94* | -9 | 0 | -3 | -1 | 9 | O=C(O)C1C(c2ccccc2)C(C(=O)Oc2ccc(O)cc2)C1c1ccccc1 (stereo not given)
12 | . | 5 | . | . | . | . | CCC(=O)Nc1ccc2c(c1)OC[C@H](C)N(C(=O)CN(C)C)C[C@H](C)[C@H](OC)CN(C)C2=O
13 | 95* | . | 1 | -1 | 14 | 5 | CCN(c1ccccc1)C1(O)C(=O)c2ccccc2C1=O
14 | -46 | . | . | . | . | 9 | O=C1c2ccccc2C(=O)C1(O)O
15 | . | -2 | . | . | . | . | CC(=O)N1CCCCN2[C@H](C1)[C@@H](c1ccc(C#Cc3ccccc3F)cc1)[C@@H]2CO
16 | . | -21 | . | . | . | . | CN(C)C(=O)C[C@@H]1CC[C@@H](NC(=O)c2ccc(F)cc2)[C@H](CO)O1
17 | 0 | . | 0 | 4 | -2 | -1 | Cc1cc(C)c(S(=O)(=O)c2ccccc2)c(=O)[nH]1
18 | . | -6 | -2 | 33* | 13 | 1 | Cc1cc(C)c(S(=O)(=O)c2cccc(C)c2C)c(=O)[nH]1
19 | 31 | . | -2 | 24* | 0 | -5 | CCN(CC)CCCNC(=O)c1ccc(N2CCCCC2)c(NS(=O)(=O)c2ccc(C)cc2)c1
20 | 22 | -7 | 0 | . | 11 | -7 | COc1cc(C)c(C(=O)Oc2cc(C)c(C(=O)O)c(O)c2C)c(O)c1C(=O)O
21 | 89* | 9 | -1 | -7 | 11 | -1 | COc1cc(C)c(C(=O)Oc2cc(C)c(C(=O)O)c(O)c2C)c(OC)c1C
22 | . | -8 | . | . | . | . | O=c1n(-c2ccccc2)c(=O)n2n1CC(COc1ccccc1)=C1[C@@H](c3ccccc3)OB(O)C[C@@H]12
23 | 18 | . | -1 | 26* | -1 | 0 | Cc1ccc(CN2CCSc3sccc3C2=O)cc1
24 | -9 | . | 0 | -5 | -5 | 9 | O=C1c2ccsc2SCCN1Cc1ccc(Cl)cc1
25 | . | 10 | . | . | . | . | COc1ccc(S(=O)(=O)N(C)C[C@H]2Oc3ccc(NC(=O)C4CC4)cc3CC(=O)N([C@H](C)CO)C[C@H]2C)cc1
26 | . | -4 | . | . | . | . | C[C@@H]1CCCCO[C@H](CN(C)C(=O)Nc2ccc3c(c2)OCO3)[C@H](C)CN([C@H](C)CO)C(=O)c2cc(NC(=O)NC3CCCCC3)ccc2O1
27 | . | -9 | -1 | . | 7 | . | Cc1ccc(NC(=O)CN(C2=NC3CS(=O)(=O)CC3S2)c2ccccc2)cc1 (stereo not given)
28 | 98* | -8 | 1 | 5 | 7 | 1 | Cc1cc(C)cc(N(CC(=O)Nc2ccccc2)C2=NC3CS(=O)(=O)CC3S2)c1 (stereo not given)
29 | 97* | -2 | -1 | 5 | 5 | 1 | COc1ccc(N(CC(=O)Nc2ccccc2C(F)(F)F)C2=NC3CS(=O)(=O)CC3S2)cc1 (stereo not given)
30 | . | -12 | . | . | . | . | COc1ccccc1-c1cnc2c(c1)C(=O)N([C@@H](C)CO)C[C@H](C)[C@@H](CN(C)Cc1cccnc1)O2

# One compound at a time, from the list above. Screens in order: ALR H2O2 inh	UUG fidelity	MC4R barr agon	NALP1 inh	MC4R antagonist	HDAC3 inhib
# Entry for O=S(=O)(NCCCN1CCN(c2ccccc2F)CC1)c1cccc2cccnc12 → 95*	-14	0	1	5	-2
# Entry for Cc1cc(C)c(S(=O)(=O)c2cccc(C)c2C)c(=O)[nH]1 → .	-6	-2	33*	13	1
# Entry for Cc1cc(C)cc(N(CC(=O)Nc2ccccc2)C2=NC3CS(=O)(=O)CC3S2)c1 (stereo not given) → 98*	-8	1	5	7	1
# Entry for Cc1ccc(S(=O)(=O)N(C)C[C@@H]2Oc3ncc(C#CC4(O)CCCC4)cc3C(=O)N([C@H](C)CO)C[C@@H]2C)cc1 → .	16	.	.	.	.
# Entry for COc1ccc(S(=O)(=O)N(C)C[C@H]2Oc3ccc(NC(=O)C4CC4)cc3CC(=O)N([C@H](C)CO)C[C@H]2C)cc1 → .	10	.	.	.	.

# (further entries)
No. | ALR H2O2 inh | UUG fidelity | MC4R barr agon | NALP1 inh | MC4R antagonist | HDAC3 inhib | mol
31 | -25 | . | -1 | -5 | -5 | -3 | COc1ccc(NC(=O)c2ccccc2S(=O)c2ccccc2C#N)cc1 (stereo not given)
32 | 99* | -9 | 1 | 9 | -1 | 5 | C=CCNC(=O)c1ccccc1S(=O)c1ccccc1C#N (stereo not given)
33 | 83* | . | -1 | 37 | 5 | 2 | CCCn1cnc2c(N)c(C)c(C)cc21
34 | -2 | -4 | 0 | 17 | 8 | -3 | CC1CC(C)CN(C(=O)c2ccc(S(=O)(=O)N3CC(C)CC(C)C3)cc2)C1 (stereo not given)
35 | -5 | -8 | 9.2* | -14 | 8 | -13 | CC1CC(C)CN(S(=O)(=O)c2ccc(Cl)cc2)C1 (stereo not given)
36 | 31 | -19 | 0 | 10 | 4 | -1 | O=C(CN1CCN(c2ccc(F)cc2)CC1)Nc1ccc2c(c1)OCCO2
37 | 100* | -4 | -1 | . | 9 | -2 | O=C(CN1CCN(c2ccccc2O)CC1)Nc1ccc2c(c1)OCCCO2
38 | 78* | -23 | 0 | 3 | -6 | 1 | O=C(CN1CCN(c2ccc(O)cc2)CC1)Nc1ccc2c(c1)OCCO2
39 | 92* | 6 | 0 | . | -2 | -2 | O=C(CN1CCN(c2ccc(O)cc2)CC1)NCC(=O)Nc1ccc(F)c(F)c1F
40 | 55 | . | 0 | 0 | -1 | -1 | O=C(CN1CCN(c2ccccc2)CC1)Nc1ccc2c(c1)OCCO2
41 | 99* | -8 | -3 | -1 | 6 | 3 | Cc1cc(NC(=O)CN2CCN(c3ccc(O)cc3)CC2)no1
42 | . | 2 | . | . | . | . | C[C@@H]1CN([C@@H](C)CO)C(=O)c2cc(NC(=O)Nc3ccccc3)ccc2O[C@@H](C)CCCCO[C@@H]1CN(C)C(=O)C1CCCCC1
43 | . | -11 | . | . | . | . | Cn1cnc(S(=O)(=O)N2C[C@H](O)COC[C@H]3O[C@H](CC(=O)NC4Cc5ccccc5C4)CC[C@@H]32)c1
44 | . | -19 | . | . | . | . | O=C(C[C@H]1C[C@@H]2c3cc(NC(=O)c4cccnc4)ccc3O[C@@H]2[C@H](CO)O1)NCc1cccnc1
